A short description of one data set: in vitro. Particulars: mouse, liver microsomes.
Data set [1] in a line: Metabolic stability in mouse liver microsomes assessed as intrinsic clearance at 1 uM measured upto 60 mins in presence of NADPH regenerating system by LC-MS/MS analysis. It is filed as ADME, Microsome. Particulars: read-out: CLH. In general terms: Liver microsomes are vesicles of endoplasmic reticulum, rich in cytochrome P450 enzymes.

`Cc1ccc(O)cc1CN(C)[C@H](C)c1cccc2ccccc12`: in the data set “in vitro”, the half-life (as a rule, the time in which the quantity being followed falls by half) at 1 h, 1 µM was found to be 0.6 min.

Take `C[C@H](c1cccc2ccccc12)N(C)Cc1ccc2[nH]ncc2c1`: in data set [1], the microsomal CLint at 1 µM was 429 µL/min/mg. Further, the half-life at 1 h, 1 µM in “in vitro” was 3.2 min.

Take `Cc1ccc(N)cc1C(=O)N[C@H](C)c1cccc2ccccc12`: in data set [1], the microsomal CLint at 1 µM was 67.4 µL/min/mg.

The values above are taken from ChEMBL document CHEMBL5528015, “Structure-based design of SARS-CoV-2 papain-like protease inhibitors” (Eur J Med Chem, 2024).
